Values quoted from earlier work in patent US20030180387A1, “Method for increasing the antioxidative potential of selenium-containing aqueous solutions” (priority 2000, published 2003).

Test system: animals
Conditions: growth inhibition, loss of hair, softening of horns and hoofs, loss of feathers

[Se] [selenium]
selenium content of animal nourishment at which toxication occurs: 5 to 10 μg selenium/g
